How the values were obtained:
mice = test: in vivo; settings: mouse
Protocol: (§1) The samples are put in a solution either in water or in a mixture of water-DMSO (3:2; v/v) so as to obtain solutions of varying concentrations,either lower than or equal to 130 g·L^-1; the volumes injected are calculated on the basis of 0.2 mL for a mouse body weight of 20 g.
(§2) The toxicity is evaluated starting from aqueous solutions, either buffered or not with NaH2 PO4 or else with Na2 HPO4, or else after addition of a stoichiometric quantity of NaHCO3.
(§3) The 2-methyl-3-hydroxypyridine-4(1H)-one derivatives of glycerol (14), of xylitol (17), of mono-acetone xylose (12) and of solketal (11) were injected by I. V. route.
(§4) The 2-methyl-3-hydroxypyridine-4(1H)-one compound of diacetone xylitol (10) was injected by I. P. route.

in vivo = settings: mouse, iv, LD50 ± SD
Protocol: as §1, §2, §3, §4

Compound	Mortality (number of mice) (mice; ip, 650 mg/kg, pH 7)	Mortality times (mice; ip, 650 mg/kg, pH 7)	Mortality (number of mice) (mice; iv, 325 mg/kg, pH 2.5)	Mortality (number of mice) (mice; iv, 525 mg/kg, pH 4)	Mortality (number of mice) (mice; iv, 650 mg/kg, pH 2.1)	Mortality times (mice; iv, 650 mg/kg, pH 2.1)	Mortality (number of mice) (mice; iv, 650 mg/kg, pH 3)	Mortality times (mice; iv, 650 mg/kg, pH 3)	Mortality (number of mice) (mice; iv, 650 mg/kg, pH 4)	Mortality (number of mice) (mice; iv, 850 mg/kg, pH 4)	Mortality (number of mice) (mice; iv, 1300 mg/kg, pH 2)	Mortality times (mice; iv, 1300 mg/kg, pH 2)	Mortality (number of mice) (mice; iv, 1300 mg/kg, pH 4)	LD50 ± SD (mice; iv) [mg/kg]	LD50 (in vivo) [mg/kg]
Cc1c(O)c(=O)ccn1C [Compound L1, 1.2-dimethyl-3-hydroxypyridine-4(1H)-one, reference compound]	5	5 h 45, 6 h, 5 h, 4 h, 5 h 45	0	0	5	54 sec., 30 sec., 20 sec., 25 sec., 26 sec.	3	50 sec., 30 sec., 35 sec.	2	5	3	20 sec., 10 sec., 10 sec.	5		
Cc1c(O)c(=O)ccn1C [L1 chlorohydrate, chlorohydrate of 1.2-dimethyl-3-hydroxypyridine-4(1H)-one, reference compound]														868 ± 86	783 ± 50
